Literature values in publication PMC10121800.

Amino acid sequences for entries named in this document (tags omitted). A change or cut given only in a name is not applied to a line headed by its entry.
UniProt Q96P20, whole entry: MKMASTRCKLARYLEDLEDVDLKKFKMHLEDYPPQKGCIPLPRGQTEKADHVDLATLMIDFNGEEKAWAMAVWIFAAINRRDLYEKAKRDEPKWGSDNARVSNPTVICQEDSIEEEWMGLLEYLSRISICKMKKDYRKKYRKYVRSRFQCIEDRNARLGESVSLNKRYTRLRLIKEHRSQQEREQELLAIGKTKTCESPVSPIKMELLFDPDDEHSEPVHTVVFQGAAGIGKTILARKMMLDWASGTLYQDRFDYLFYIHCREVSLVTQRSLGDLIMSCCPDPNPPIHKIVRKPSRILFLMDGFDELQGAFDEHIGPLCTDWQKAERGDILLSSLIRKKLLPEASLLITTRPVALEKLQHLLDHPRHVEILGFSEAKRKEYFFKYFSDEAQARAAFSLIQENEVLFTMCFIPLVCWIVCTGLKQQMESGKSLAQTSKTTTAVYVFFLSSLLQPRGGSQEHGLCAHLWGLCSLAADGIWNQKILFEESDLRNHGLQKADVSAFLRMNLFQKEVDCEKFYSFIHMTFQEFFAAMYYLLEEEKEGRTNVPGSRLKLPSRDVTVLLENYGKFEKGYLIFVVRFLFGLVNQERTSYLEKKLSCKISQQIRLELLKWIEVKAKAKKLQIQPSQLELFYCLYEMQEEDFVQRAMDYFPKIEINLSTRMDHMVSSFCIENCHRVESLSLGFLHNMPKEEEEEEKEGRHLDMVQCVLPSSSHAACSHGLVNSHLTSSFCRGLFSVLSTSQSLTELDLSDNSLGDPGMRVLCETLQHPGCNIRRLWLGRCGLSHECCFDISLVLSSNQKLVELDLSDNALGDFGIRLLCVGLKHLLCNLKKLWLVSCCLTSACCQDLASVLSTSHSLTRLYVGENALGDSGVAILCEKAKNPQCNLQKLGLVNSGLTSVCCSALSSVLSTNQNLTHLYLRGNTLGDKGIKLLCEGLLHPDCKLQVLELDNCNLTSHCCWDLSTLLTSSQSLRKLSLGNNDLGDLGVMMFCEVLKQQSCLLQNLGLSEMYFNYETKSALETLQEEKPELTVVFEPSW
UniProt Q8TDX7: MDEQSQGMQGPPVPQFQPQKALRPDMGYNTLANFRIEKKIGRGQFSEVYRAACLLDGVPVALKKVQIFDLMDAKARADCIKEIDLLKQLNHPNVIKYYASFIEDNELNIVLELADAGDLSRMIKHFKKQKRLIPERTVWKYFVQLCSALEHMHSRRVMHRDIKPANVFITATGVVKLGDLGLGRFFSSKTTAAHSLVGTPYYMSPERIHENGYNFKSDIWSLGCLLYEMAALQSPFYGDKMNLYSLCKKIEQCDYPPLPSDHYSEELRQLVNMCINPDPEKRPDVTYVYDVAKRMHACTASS

Molecular target: NLRP3 (Homo sapiens) (UniProt Q96P20)

NEK7 (from UniProt Q8TDX7)
Kd: 78.9 nM
